Data taken from patent US20240293405A1, “(1H-PYRROLO[2,3-B]PYRIDIN-1-YL)PYRIMIDIN-2-YL-AMINO-PHENYL-ACRYLAMIDE INHIBITORS OF EGFR FOR USE IN THE TREATMENT OF BRAIN TUMORS” (Dana-Farber Cancer Institute, Inc., priority 2021, published 2024).
Several values for one entry are separate records, joined by “and”; a condition that tells them apart may be missing. Equal values may be shown once. Read-outs that look alike come from different tables or passages of the source.

Tests used:
in vivo = conditions: male, Sprague Dawley, rat, 3 mg/kg, 3 mg/kg IV infusion over 5 h; for Kp at 5 h: brain, iv, Brain/Plasma (ratios)
[1] = 3 mg/kg IV infusion over 5 h, 5 h, individual animal; Compound 2 as metabolite in Compound 1-dosed rats
[2] = Brain and plasma exposure after single oral dose; type: in vivo, Sprague Dawley rats; conditions: gefitinib 50 mg/kg PO, 7 hr

COc1cc2ncnc(Nc3ccc(F)c(Cl)c3)c2cc1OCCCN1CCOCC1 [Gefitinib, reference compound]
Kp at 5 h (in vivo; 5 h, individual animal, Compound 2 as metabolite in Compound 1-dosed rats): 0.542
Kp at 5 h (in vivo; 5 h, mean n=6, Compound 2 as metabolite): 0.55
concentration at 0.083 h (in vivo; plasma, intravenous, Plasma Concentration, 0.083 h, mean n=6, Compound 2 as metabolite): 0.042 µg/mL
concentration at 1 h (in vivo; plasma, intravenous, Plasma Concentration, 1 h, mean n=6, Compound 2 as metabolite): 0.117 µg/mL
concentration at 2 h (in vivo; plasma, intravenous, Plasma Concentration, 2 h, mean n=6, Compound 2 as metabolite): 0.174 µg/mL
concentration at 3 h (in vivo; plasma, intravenous, Plasma Concentration, individual animal, Compound 2 as metabolite in Compound 1-dosed rats): 0.225 µg/mL
concentration at 3 h (in vivo; plasma, intravenous, Plasma Concentration, mean n=6, Compound 2 as metabolite): 0.241 µg/mL
concentration at 5 h (in vivo; plasma, intravenous, Plasma Concentration, 5 h, mean n=6, Compound 2 as metabolite): 0.28 µg/mL
Brain/Plasma (ratios) [1]: 0.544 and 0.517 and 0.624
Brain/Plasma (ratios) ([2]; individual animal): 0.250 and 0.142
Brain/Plasma (ratios) ([2]; mean n=3): 0.224
